# Data published in patent publication US20260193149A1, “[…] USEFUL MINERAL AMINO ACID COMPLEXES” (Statera Ag, LLC, priority 2022, published 2026).
# “Also recorded” adds a separate entry of the source.
# Key:
# corn = assay: Boron absorption into corn leaf after foliar application, growth stage V5 (Example 4)
# Procedure: Each solution was applied independently of one another at these rates, and the applications emulated commercial application conditions, with 30-inch spacings. The test solutions were applied to three different fields to allow for data replication. The corn was at growth stage V5 during the test. Each test solution was evenly applied using a portable foliar applicator ([…] M18 sprayer with a four-gallon tank). Application time per row was recorded to allow for the calculation of an average application rate of the applicator. Any remaining application solution was weighed to allow for the exact calculation of applied solution per acre (converted below to ounces per acre). The solution application rates are reported below in Table 11 and boron application rates are reported below in Table 12. Applications were done in the heat of the day (96° F.), with minimal wind to preclude drift. Control strips for each product at both application rates were identified, and tissue samples from the control strips were collected to reflect an application rate of 0.00 ounces of product per 68 ounces of water.
# Tissues were collected after two days using standard tissue collection procedures. Twelve top collar leaves were collected per row. The leaf samples were placed in paper bags and sent to a commercial lab for leaf mineral analysis using ICP-AA.
# The application rates reported above Table 11 were adjusted by the concentration of the applied product so that the data could be compared on an equivalent basis, which are reported in Table 12. Tissue boron was regressed against the adjusted applied rates using the Fit Y×X model of SAS JMP (v. 15.0). The Experimental Unit was Field.
# Five chemical compounds containing boron were evaluated. The slope of the line was defined according to the following equation: […]
# [1] = Precipitation / salting out of boron:amino acid solutions; assay type: physicochemical; details: during or after reaction
# Procedure: In order to create the solutions provided in Table 2, tap water was first placed into a 500-mL beaker, and the beaker was placed on a hot plate with a magnetic stirrer. A stir bar was then placed inside the beaker and the magnetic stirrer was turned to setting 8. A thermocouple was also inserted into the water in order to measure the temperature of the water. Once the initial temperature was measured, the mineral reactant was poured into the water and a stopwatch was started. The temperature of the solution was measured at 30-second increments. Upon dissolution of the mineral reactant, the amino acid (in this Example, glycine) was added to the solution and the temperature and time of addition were recorded. The end point of the coordination reaction was determined to be the point when (a) all solute was dissolved and (b) the temperature of the solution stabilized.
# To mix the solutions, tap water was first placed into a 500-mL beaker, and the beaker was placed on a hot plate with a magnetic stirrer. […] The temperature was measured in 30-second increments. When all of the sodium borate dissolved, lysine was added and the temperature and time of the addition were recorded. The end point of the coordination reaction was recorded as the point when (1) all solute was dissolved and (2) the temperature of the solution stabilized. […]
substance,measurement,setting,value
boron glycinate,boron absorption less than boric acid,"corn; corn V5, Example 4",0.51 ppm/oz B
same,decrease of boron absorbed into leaf tissue compared to boric acid,"corn; corn V5, Example 4",0.51 ppm
same,"B Absorption, ppm/oz applied B","corn; corn V5, foliar application, top collar leaves collected after two days, slope of tissue boron vs applied boron",4.07 ppm/oz applied B
same,precipitation / salting out from aqueous solution,[1],insoluble crystal structure precipitated; also recorded: irreversible precipitation of boric acid from the solution
same,precipitation / salting out from aqueous solution,[1]; listed as glycine:boron compound,precipitates once the reaction has come to completion
